Earlier results on 1 molecule are cited in paper PMC8342319, “Predicting blood-to-plasma concentration ratios of drugs from chemical structures and volumes of distribution in humans” (Molecular Diversity, 2021).

SMILES strings stand for the structures. This is a selection: effects in other tests are not listed, and their absence says nothing.

For data set [1] the following is noted: median if multiple values were reported, ref numbers in Table S1; cited from earlier work.
Data set [2] deals with plasma protein. The note with it: median if multiple values were reported, cited from earlier work.
For data set [3] the following is noted: human, intravenous; median if multiple values were reported; ref numbers in Table S1; cited from earlier work.

With `CC(C)N1CCC(N(C(=O)Cc2ccccc2)c2ccc(Cl)cc2)CC1`, the Rb Human (blood-to-plasma concentration ratio) in data set [1] is 0.74. Also, the fp_Human in data set [2] (human plasma free fraction, ref numbers in Table S1) is 0.155. Moreover, in data set [2] (human, collected value, ref: Table S1), the fp Human (free fraction in plasma) is 0.155. In data set [3], the “in vivo Vd_(L/kg)_Human” value is reported as 6.600 L/kg.
